Columns and labels:
[1] = rat, in vivo, iv, 5 mg/kg, 1 h
[2] = in vivo; settings: rat, iv, 5 mg/kg, Brain/plasma ratio Mean
[3] = target: T1, recombinant human M4 muscarinic acetylcholine receptor (Homo sapiens, UniProt P08173); experiment: Muscarinic M4 receptor radioligand binding; settings: 3H-N-Methylscopolamine 0.8 nM, CHO cell membranes
T1 construct: expressed in transfected cells; host or cells: CHO cells (membranes)

Sequences of proteins named here, by UniProt entry; tags and fusion partners are left off.
UniProt P08173, whole entry: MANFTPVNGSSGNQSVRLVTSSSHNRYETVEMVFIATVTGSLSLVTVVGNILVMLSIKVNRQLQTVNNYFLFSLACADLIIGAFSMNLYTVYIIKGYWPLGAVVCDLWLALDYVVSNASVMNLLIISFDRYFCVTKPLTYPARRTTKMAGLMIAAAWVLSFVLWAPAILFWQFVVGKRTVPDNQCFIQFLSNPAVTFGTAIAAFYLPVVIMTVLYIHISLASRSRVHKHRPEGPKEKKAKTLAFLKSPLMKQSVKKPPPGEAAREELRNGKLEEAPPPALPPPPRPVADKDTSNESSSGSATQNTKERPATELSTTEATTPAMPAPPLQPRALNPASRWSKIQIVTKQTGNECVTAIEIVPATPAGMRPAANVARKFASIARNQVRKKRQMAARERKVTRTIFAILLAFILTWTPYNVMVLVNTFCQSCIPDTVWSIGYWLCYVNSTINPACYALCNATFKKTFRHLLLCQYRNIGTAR
UniProt P08912, whole entry: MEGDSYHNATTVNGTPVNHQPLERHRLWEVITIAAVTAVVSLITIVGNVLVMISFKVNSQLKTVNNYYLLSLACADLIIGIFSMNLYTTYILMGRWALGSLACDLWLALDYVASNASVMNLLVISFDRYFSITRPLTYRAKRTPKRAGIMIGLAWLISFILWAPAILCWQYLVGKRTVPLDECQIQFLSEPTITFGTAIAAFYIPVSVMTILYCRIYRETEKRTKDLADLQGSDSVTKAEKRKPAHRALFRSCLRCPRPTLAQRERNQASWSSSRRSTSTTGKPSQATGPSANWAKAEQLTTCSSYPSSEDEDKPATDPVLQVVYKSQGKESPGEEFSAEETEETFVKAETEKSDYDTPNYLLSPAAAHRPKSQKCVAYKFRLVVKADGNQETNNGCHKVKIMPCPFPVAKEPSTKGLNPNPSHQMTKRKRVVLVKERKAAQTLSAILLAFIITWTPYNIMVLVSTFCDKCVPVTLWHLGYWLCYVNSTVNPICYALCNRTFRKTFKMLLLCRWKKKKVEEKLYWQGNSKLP

[4] = target: T2, recombinant human M5 muscarinic acetylcholine receptor (Homo sapiens, UniProt P08912); experiment: Muscarinic M5 receptor radioligand binding; settings: 3H-N-Methylscopolamine 0.8 nM, CHO cell membranes
T2 construct: expressed in transfected cells; host or cells: CHO cells (membranes)

| Compound | Brain/plasma ratio Mean [1] | Kp at 1 h [2] | Ki [3] [nM] | Ki [4] [nM] |
| --- | --- | --- | --- | --- |
| CC(CN1c2ccccc2Sc2ccccc21)N(C)C (stereo not shown) [Promethazine, reference compound] | 39.926 | 39.9 | – | – |
| mPEG9-N-promethazine | – | – | 455 | 2050 |
